This data set concerns C[S+](CC[C@H](N)C(=O)O)C[C@H]1O[C@@H](n2cnc3c(N)ncnc32)[C@H](O)[C@@H]1O. Briefly: cells, lysate or membranes named. Conditions: 50:50 POPE:POPG 100 nm unilamellar vesicles 1 mg/ml, 200 mM potassium acetate, pH 7.5, 37 °C.

This note sets out measurements from paper PMC11387697, “Defining the functional properties of cyclopropane fatty acid synthase from Pseudomonas aeruginosa PAO1” (The Journal of Biological Chemistry, 2024).

Regarding PA-CFAS (Pseudomonas aeruginosa PAO1), the Km came out at 26 ± 3 µM and the kcat was determined as 0.0417 ± 0.0013 s⁻¹.
